For one compound, IC50 results are on record in paper PMC12921516, “Optimization of Indole- and Pyrazole-fused Glycyrrhetinic Acid Derivatives as Potent PTP1B Inhibitors: In Silico, In Vitro, In Vivo, and Metabolomic Studies” (ACS Bio & Med Chem Au, 2025).

The target of this experiment is T1, hPTP1B1–400 (Homo sapiens, UniProt P18031).
T1 construct: h PTP1B 1–400 IC 50 (μM ± S.D); made in house
T1 sequence (P18031 1-400): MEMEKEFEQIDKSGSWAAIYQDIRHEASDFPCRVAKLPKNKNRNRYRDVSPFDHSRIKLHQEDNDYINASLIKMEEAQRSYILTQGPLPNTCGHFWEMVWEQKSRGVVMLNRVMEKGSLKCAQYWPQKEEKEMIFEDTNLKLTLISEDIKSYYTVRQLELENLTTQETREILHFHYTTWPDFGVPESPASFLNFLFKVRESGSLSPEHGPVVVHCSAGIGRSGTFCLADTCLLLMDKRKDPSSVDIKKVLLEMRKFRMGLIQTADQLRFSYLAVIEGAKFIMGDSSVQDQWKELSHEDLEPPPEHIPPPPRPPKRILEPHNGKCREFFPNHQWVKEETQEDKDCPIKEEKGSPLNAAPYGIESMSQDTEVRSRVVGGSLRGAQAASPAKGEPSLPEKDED
Briefly: PTP1B inhibition, pNPP hydrolysis, long form. The class given is biochemical. The settings on record: pNPP substrate, 15 min 37 °C, pH 6.8; ± S.D. The procedure:
The inhibitory activity of PTP1B was assessed using the long form of the PTP1B enzyme (hPTP1B1–400). This enzyme comprises a highly conserved N-terminal catalytic domain, known as the PTP domain (PTP1B1–300), in addition to an intrinsically disordered regulatory domain (PTP1B301–400).
The IC50 values obtained from these tests are detailed in Table .
Aliquots of 0–10 μL of the test compounds (triplicate) were taken and incubated for 15 min at 37 °C with 85 μL of Tris buffer solution (50 mM, pH 6.8) containing PTP1B enzyme and 5 μL of p-nitrophenyl phosphate substrate (pNPP, 10 mM). The absorbance of the hydrolysis product, p-nitrophenol (pNP), was measured at 405 nm using a 96-microplate absorbance reader (Accuris SmartReader 96). The inhibitory activity was determined according to eq . %enzyme=(A405b/A405c)×100 1 Where: % enzyme is the percentage of inhibition for PTP1B or TCPTP
The IC50 was calculated using regression analysis, eq : %inhibition=A100/1+(I/IC50)^s 2 Where: A100: Maximum inhibition

What is called IC50 is the concentration that gives 50% inhibition. Higher therefore signals a need for much substance. For the compound `CC1(C)[C@@H](O)CC[C@]2(C)[C@H]3C(=O)C=C4[C@@H]5C[C@@](C)(C(=O)O)CC[C@]5(C)CC[C@@]4(C)[C@]3(C)CC[C@@H]12` [GA, Glycyrrhetinic acid], the IC50 was determined as 29.05 ± 0.03 µM.
